Results on two molecules are retold here after PubChem BioAssay AID1792 (The Scripps Research Institute Molecular Screening Center, 2009).

The chains behind the UniProt entries cited, without tags or fusion partners. Where a name states a change or a piece, a line headed by the entry shows the natural chain unless it says otherwise.
UniProt Q9Y5S8: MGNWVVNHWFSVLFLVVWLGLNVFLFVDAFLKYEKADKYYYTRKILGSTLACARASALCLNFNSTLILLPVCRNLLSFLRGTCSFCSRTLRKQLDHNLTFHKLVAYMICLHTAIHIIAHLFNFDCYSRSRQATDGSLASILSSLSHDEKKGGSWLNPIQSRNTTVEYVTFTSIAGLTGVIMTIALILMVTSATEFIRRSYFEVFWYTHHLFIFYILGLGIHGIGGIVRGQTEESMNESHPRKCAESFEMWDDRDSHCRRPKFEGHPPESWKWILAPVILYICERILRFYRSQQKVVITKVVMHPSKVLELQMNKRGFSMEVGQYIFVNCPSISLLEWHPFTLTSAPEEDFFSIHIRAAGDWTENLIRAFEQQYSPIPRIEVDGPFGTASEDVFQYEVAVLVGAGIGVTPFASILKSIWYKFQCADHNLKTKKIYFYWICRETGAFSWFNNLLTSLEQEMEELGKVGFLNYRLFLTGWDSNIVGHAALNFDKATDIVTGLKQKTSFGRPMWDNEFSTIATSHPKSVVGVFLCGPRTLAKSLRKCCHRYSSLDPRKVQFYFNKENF

Molecules are shown by their SMILES. This is a selection; strong and weak results do not stand in their true shares. Calls of active or inactive are those of the source. No stated cut-off is given here; in the data, active means inhibition above about 75%; inactive means the rest.

For the experiment, the target named is NADPH oxidase 1 (Homo sapiens) (UniProt Q9Y5S8). Put plainly: inhibitors of human NADPH oxidase 1 (Nox1) (AID 1792). Conditions: HT29 cells, luminol chemiluminescence ROS; at 6.7 µM; active compounds read high.
Take `CCOC(=O)/C(=N/Nc1ccc([N+](=O)[O-])cc1)N1CC1`: the inhibition was inactive: 34%.
On to `O=C(OC1CN2CCC1CC2)c1cccc([N+](=O)[O-])c1` (configuration not stated), for which the inhibition is inactive: -61.3%.

Broadly, the inhibition is the drop in the measured response relative to a control, in per cent.
